Here are results for two compounds from PubChem BioAssay AID368 (University of Pittsburgh Molecular Library Screening Center, 2006).

The chains behind the UniProt entries cited, without tags or fusion partners.
UniProt P30305, whole entry: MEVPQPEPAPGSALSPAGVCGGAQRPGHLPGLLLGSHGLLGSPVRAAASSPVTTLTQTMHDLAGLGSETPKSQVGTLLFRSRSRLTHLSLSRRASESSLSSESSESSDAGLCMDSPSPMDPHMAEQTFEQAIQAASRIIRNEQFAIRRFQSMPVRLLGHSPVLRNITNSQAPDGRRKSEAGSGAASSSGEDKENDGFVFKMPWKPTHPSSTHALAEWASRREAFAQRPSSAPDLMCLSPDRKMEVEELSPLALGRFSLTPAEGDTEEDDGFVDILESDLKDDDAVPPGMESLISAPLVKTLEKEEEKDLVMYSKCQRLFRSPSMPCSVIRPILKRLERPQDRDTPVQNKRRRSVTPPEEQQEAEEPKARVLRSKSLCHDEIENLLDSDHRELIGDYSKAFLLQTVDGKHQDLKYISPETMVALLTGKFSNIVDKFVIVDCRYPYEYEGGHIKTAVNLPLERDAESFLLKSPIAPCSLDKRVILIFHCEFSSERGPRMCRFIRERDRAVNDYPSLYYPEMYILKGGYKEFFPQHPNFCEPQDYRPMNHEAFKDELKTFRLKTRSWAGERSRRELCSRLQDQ

The entries are a selection whose mix differs from that of the whole data set. Some results for these compounds are left out of this collection, so the calls shown say nothing about other tests. Active and inactive are the calls of the source. Cut-off read from the data, not from the text of the source: active = inhibition above about 50%; inactive = the rest.

This assay concerns the target M-phase inducer phosphatase 2 (Homo sapiens) (UniProt P30305). The experiment in a line: human Cdc25B tyrosine phosphatase blockers – biochemical, OMFP fluorescence, catalytic domain, primary screen (AID 368). As to conditions: recombinant Cdc25B, OMFP fluorescence Ex485/Em525; active compounds read high;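 compounds tested at 10 µM final in the well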.
For `CN(C)c1cccc(C(=O)NCC2(N(C)C)CCCCC2)c1`, the inhibition is inactive: -6.06%.
Under `O=C(OC1CN2CCC1CC2)C(CO)(c1ccccc1)c1ccccc1` (configuration not stated) stands inactive: -10.2%.

Broadly, the inhibition is the change of the read-out against control, counted positive when it falls.
